Measured values from patent US6977259B2, “Quinoline derivatives and their use as aurora 2 kinase inhibitors” (AstraZeneca AB, priority 2000, dated 2005).

Chains of the proteins cited; added tags and fusions are not shown.
UniProt O14965, whole entry: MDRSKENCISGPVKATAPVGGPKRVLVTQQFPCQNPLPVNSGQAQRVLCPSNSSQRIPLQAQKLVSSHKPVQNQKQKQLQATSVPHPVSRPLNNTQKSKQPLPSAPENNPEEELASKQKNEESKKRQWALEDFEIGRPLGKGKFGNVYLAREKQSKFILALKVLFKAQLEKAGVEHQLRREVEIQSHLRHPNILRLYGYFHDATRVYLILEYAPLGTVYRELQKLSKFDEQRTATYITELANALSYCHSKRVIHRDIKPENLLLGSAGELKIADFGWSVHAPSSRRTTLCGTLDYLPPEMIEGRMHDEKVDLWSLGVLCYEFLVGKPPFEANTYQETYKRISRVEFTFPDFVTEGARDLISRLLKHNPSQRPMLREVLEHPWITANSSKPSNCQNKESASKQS

Tests used:
[1] = system: MCF-7 cells; test: In vitro cell proliferation assay II (BrdU incorporation); conditions: read-out: concentration giving 50% inhibition of BrdU incorporation; MCF-7, 48 hours with compound, 2 hour BrdU labelling, ELISA
Text: (b) In Vitro Cell Proliferation Assays
These and other assays can be used to determine the ability of a test compound to inhibit the growth of adherent mammalian cell lines, for example the human tumour cell line MCF7.
This assay determines the ability of at test compound to inhibit the incorporation of the thymidine analogue, 5′-bromo-2′-deoxy-uridine (BrdU) into cellular DNA. MCF-7 or other adherent cells were typically seeded at 0.8×10^4 cells per well in DMEM (Sigma Aldrich) without phenol red, plus 10% foetal calf serum, 1% L-glutamine and 1% penicillin/streptomycin (50 μl/well) in 96 well tissue culture treated 96 well plates (Costar) and allowed to adhere overnight. […] The optical density of the wells was then determined at 690 nm wavelength using a Titertek Multiscan plate reader. […]

[2] = molecular target: aurora2 kinase (Homo sapiens, UniProt O14965); test: In vitro aurora2 kinase inhibition test; conditions: read-out: concentration giving 50% inhibition of enzyme activity; recombinant tagged aurora2, 33P-ATP, peptide substrate, 60 minutes at room temperature
Text: (a) In Vitro Aurora2 Kinase Inhibition Test This assay determines the ability of a test compound to inhibit serine/threonine kinase activity. DNA encoding aurora2 may be obtained by total gene synthesis or by cloning. This DNA may then be expressed in a suitable expression system to obtain polypeptide with serine/threonine kinase activity. In the case of aurora2, the coding sequence was isolated from cDNA by polymerase chain reaction (PCR) and cloned into the BamH1 and Not1 restriction endonuclease sites of the baculovirus expression vector pFastBac HTc (GibcoBRL/Life technologies). The 5′ PCR primer contained a recognition sequence for the restriction endonuclease BamH1 5′ to the aurora2 coding sequence. This allowed the insertion of the aurora2 gene in frame with the 6 histidine residues, spacer region and rTEV protease cleavage site encoded by the pFastBac HTc vector. The 3′ PCR primer replaced the aurora2 stop codon with additional coding sequence followed by a stop codon and a recognition sequence for the restriction endonuclease Not1. This additional coding sequence (5′ […] 3′) encoded for the polypeptide sequence YPYDVPDYAS. This sequence, derived from the influenza hemagglutin protein, is frequently used as a tag epitope sequence that can be identified using specific monoclonal antibodies. […]

N#Cc1cc2c(Nc3cnc(NC(=O)c4ccccc4)nc3)ccnc2cc1OCCCN1CCOCC1
IC50 [1]: 0.36 µM | IC50 [2]: 0.0521 µM
